Earlier results on 1 substance are cited in patent US20260262651A1, “COPPER OXYCHLORIDE/ZINEB NANO-SUSPENSION DISPERSION” (priority 2023, published 2026).

The conditions of the series: pH 6.5, 20° C.

As to “Dicopper chloride trihydroxide [copper oxychloride]”, the solubility in water is 0.506 µg/mL.
